Literature values as cited in patent US20220090096A1 (priority 2019, published 2022).

Test system: aptamer of the theophylline-responsive riboswitch
Details: cited from earlier work

Cn1c(=O)c2[nH]cnc2n(C)c1=O [theophylline]
binding affinity for theophylline greater than that of caffeine: 10,000 fold
